Measurements as given in ChEMBL document CHEMBL1146036, “Structural determinants of opioid activity in derivatives of 14-aminomorphinones: effect of substitution in the aromatic ring of cinnamoylaminomorphinones and codeinones” (J Med Chem, 2006).

Chains of the proteins cited; added tags and fusions are not shown. Lines headed by an entry give the natural chain unless they say otherwise; changes in a name come on top.
UniProt P35372, whole entry, looked up: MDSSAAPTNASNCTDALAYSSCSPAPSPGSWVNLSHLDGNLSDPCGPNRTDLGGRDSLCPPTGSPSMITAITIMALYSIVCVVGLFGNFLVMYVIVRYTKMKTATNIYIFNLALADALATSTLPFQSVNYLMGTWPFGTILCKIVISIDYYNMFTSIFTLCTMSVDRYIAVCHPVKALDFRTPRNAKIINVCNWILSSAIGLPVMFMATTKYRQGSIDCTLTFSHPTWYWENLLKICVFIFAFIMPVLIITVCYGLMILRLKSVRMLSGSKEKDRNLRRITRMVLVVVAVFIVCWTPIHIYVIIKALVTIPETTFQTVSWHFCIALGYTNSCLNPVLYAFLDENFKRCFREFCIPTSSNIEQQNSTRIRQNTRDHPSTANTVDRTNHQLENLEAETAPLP
UniProt P41143, whole entry, looked up: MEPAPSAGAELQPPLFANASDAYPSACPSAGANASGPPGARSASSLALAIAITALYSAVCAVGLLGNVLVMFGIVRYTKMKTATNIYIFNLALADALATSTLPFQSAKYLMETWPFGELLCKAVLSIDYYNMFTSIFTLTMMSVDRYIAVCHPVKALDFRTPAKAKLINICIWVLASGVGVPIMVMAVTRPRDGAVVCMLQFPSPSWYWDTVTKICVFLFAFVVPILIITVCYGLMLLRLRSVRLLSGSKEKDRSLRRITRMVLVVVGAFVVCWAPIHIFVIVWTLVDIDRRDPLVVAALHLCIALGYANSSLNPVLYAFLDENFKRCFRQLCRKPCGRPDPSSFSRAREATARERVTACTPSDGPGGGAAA
UniProt P41145: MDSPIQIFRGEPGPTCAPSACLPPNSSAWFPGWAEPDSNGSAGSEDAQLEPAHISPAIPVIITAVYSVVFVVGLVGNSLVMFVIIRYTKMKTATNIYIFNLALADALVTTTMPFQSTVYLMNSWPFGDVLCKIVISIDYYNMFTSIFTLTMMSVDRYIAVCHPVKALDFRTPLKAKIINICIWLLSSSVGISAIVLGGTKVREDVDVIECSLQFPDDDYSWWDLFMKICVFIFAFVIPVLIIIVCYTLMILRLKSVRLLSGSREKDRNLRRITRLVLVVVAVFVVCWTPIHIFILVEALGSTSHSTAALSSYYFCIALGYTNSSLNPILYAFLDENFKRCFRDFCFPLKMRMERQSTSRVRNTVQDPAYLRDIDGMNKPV

Assays:
Mu-type opioid receptor = Mu-type opioid receptor (Homo sapiens, UniProt P35372); test: Displacement of [3H]DAMGO from human recombinant MOR expressed in CHO cells
[1] = biological target: Delta-type opioid receptor (Homo sapiens, UniProt P41143); test: Displacement of [3H]Cl-DPDPE from human recombinant DOR expressed in CHO cells; format: cell-based
[2] = biological target: Kappa-type opioid receptor (Homo sapiens, UniProt P41145); test: Displacement of [3H]U-69593 from human recombinant KOR expressed in CHO cells

## CN1CC[C@]23c4c5cccc4O[C@H]2C(=O)CC[C@@]3(NC(=O)/C=C/c2ccccc2Cl)[C@H]1C5
Mu-type opioid receptor
  pKi: 9.82
[1]
  pKi: 10.10
[2]
  pKi: 9.27

pKi: −log10 of the molar value.
